Data taken from patent US20060141546A1, “Bacterial test method by glycated label binding” (priority 2002, published 2006).

Key:
E. coli = assay: Competitive inhibition of ALP binding to bacteria by added protein (Example 3, Table 2); details: protein 2-40 μg added with ALP 2 μg
Experimental: (§1) Less than 20% was no inhibition (NI) and greater than 90% was complete inhibition (CI) with a binding constant great than ALP.
(§2) Bacterial cells (1 to 4.5×10^7 cells/mL) were washed twice with water after centrifugation to separate cells into a packed pellet from the supernatant liquid. The washed cells in pellet form were suspended in 20 ul of N-2-hydroxyethyl piperazine-N′-[3-propane sulfonic acid] EPPS buffer (50 mM at pH 8.0) and 30 μL of water. Glycated protein(s) (2-40 μg) were added. In some cases a glycated protein (2-40 μg) and bovine intestinal alkaline phosphatase (ALP) (2 μg or […]) were added and the binding of the glycated protein measured by the reduction of binding of ALP.
(§3) The mixture of glycated protein and bacterial cells was left at 25° C. for 15 minutes. The mixture was then centrifuged at 30,000 rpm for 30 minutes after which the bacterial cells formed a pellet at the bottom of the tube and were washed with water 4-5 times (50 μL). Centrifugation allows separation of glycoprotein bound to the bacteria cells from unbound glycated protein(s).
(§4) After washing, the bacterial pellets were suspended in 50 μL of borate buffer (25 mM at pH 9.0). […] The color is read at 405 nm using a ELISA plate reader between 15-30 min. The absorbance is directly proportional to the amount of ALP bound to the bacteria cell adhesions for glycated groups. […]

S. faec. = assay: as above; details: protein 2-40 μg added with ALP 2 μg
Experimental: as §1, §2, §3, §4

Substance: Albumin: glycated protein, simple carbohydrates
- inhibition of the binding of ALP by bacteria (E. coli): 50%
- inhibition of the binding of ALP by bacteria (S. faec.): 61%
